Consider 1 molecule from article PMC5250654 (Clinical Drug Investigation, 2016).

Data set [1] relates to anti-immunoglobulin E-stimulated CD63 expression on basophils. As to the kind of experiment: CD63 assay: ex vivo anti-IgE-stimulated CD63 expression on whole-blood basophils. It is filed as cell-based, human. Conditions: ≥600 mg twice daily, fasted.
Data set [2] addresses T1, pervanadate-evoked phosphorylated SYK (pSYK) Y525 (Homo sapiens, UniProt P43405). As to the kind of experiment: cell-based.
For data set [3] the following is noted: single oral dose, all doses, fasted.
For data set [4], the target named is T1, pervanadate-evoked phosphorylated SYK (pSYK) Y525.
The test system of data set [5] is SYK versus other kinase targets. Conditions: cited from earlier work.
For data set [6] the following is noted: multiple twice-daily dosing, fed conditions.

Molecules are shown by their SMILES. Where “and” joins values, the source holds several entries; their conditions need not be identical. Equal entries are not always repeated. Where two headings read alike, the source gives them in different places.

For orientation: EC50 means the concentration that produces a half-maximal response. Higher therefore signals a need for much substance. For `c1cn2cc(-c3ccc4cn[nH]c4c3)nc(Nc3ccc(N4CCOCC4)cc3)c2n1` [entospletinib, Entospletinib], the “time to C max after administration” value (fasted conditions (comparison with fed)) worked out at 2 h, the “time to C max after administration” value in data set [3] was in the range of 2 to 3 h and the “time to C max after administration” value in data set [6] was at most 4 h. Besides, the “time of C max post-dose” value (multiple twice-daily doses, fasted) is 2 to 3 h. The “time to achieve steady-state concentrations” value (twice-daily dosing) was in the range of 3 to 4 days. The “CD63 inhibition at trough concentrations” value in data set [1] was > 60% and > 50%. Moreover, the EC50 in data set [2] was 267 nM. In data set [4] (doses ≥600 mg twice daily), the “time of maximal mean inhibition of pSYK expression post-dose” value is 4–5 h. Besides, the “inhibition of pSYK expression maintained at C trough” value in data set [4] (doses ≥600 mg twice daily, 12 h post-dose) is listed as at least 54%. Also, the “maximal mean inhibition of pSYK expression” value in data set [4] (doses ≥600 mg twice daily, peak at 4–5 h post-dose) is at least 72%. Also, the “pSYK inhibition at peak concentrations” value in data set [4] (≥600 mg twice daily, fasted) is over 70%. The “pSYK inhibition at trough concentrations” value in data set [4] (≥600 mg twice daily, fasted) is given as over 50%. The “selectivity for SYK versus other kinase targets” value in data set [5] is on record as “greater than 14 fold”.
